Results published in US12128037B2, “Sulfasalazine salts, production processes and uses” (priority 2017, dated 2024).

Tests used:
[1] = Gravimetric vapour sorption (GVS), hygroscopicity; assay type: physicochemical; conditions: 25° C.
Protocol: With regard to the ability (rate and extent) of water vapour uptake, the European Pharmacopoeia Technical guide 2015, General Chapter 5.11. has categorized pharmaceutical solids into four different classes: i.e. as slightly hygroscopic (equal to or greater than 0.2 but less than 2% w/w uptake at RH 80% and 25° C.), hygroscopic (equal to or greater than 2%, but less than 15% w/w uptake at RH 80% and 25° C.), very hygroscopic (equal to or greater than 15% w/w uptake at RH 80% and 25° C.) and deliquescent (sufficient water is absorbed to form a liquid) according to the extent of water uptake.
Gravimetric vapour sorption (GVS) was used to determine the hygrocopicity of the samples: experiments were performed at 25° C. using a DVS 1 instrument from SMS Ltd to record adsorption-desorption isotherms using different methods, the main features being: a single sorption/desorption cycle from 0 to 80% RH in 10% RH steps with a dm/dt trigger value of 0.002% (dm/dt=change in mass with time—when the balance stability is within this value the next step is automatically started, however, if those conditions are not achieved there is a default maximum time for each step of 6 hours). The sample amount used was 1-3 mg.

[2] = Solubility in de-ionized water (HPLC); conditions: 24° C. after 24 h

Which “water vapor uptake (GVS)” value ([1]; 30% RH) does the source give for “Piperazine 2-hydroxy-5-[2-[4-[(2-pyridinylamino)sulfonyl]phenyl]diazenyl]-benzoate [Form A piperazine salt]” here?
Its value is 0.4 % w/w.

What about the “water vapor uptake (GVS)” value ([1]; 80% RH) of the same substance?
Its value is 0.9 % w/w.

What about the “solubility in de-ionized water” value [2] of the same substance?
Its value is 120 µg/mL.
